# Molecular target: T1, rat PKC β-1 (Rattus norvegicus, UniProt P68403)
# Chains of the proteins cited; added tags and fusions are not shown. Residues count along the entry.
# UniProt P68403, 2-671: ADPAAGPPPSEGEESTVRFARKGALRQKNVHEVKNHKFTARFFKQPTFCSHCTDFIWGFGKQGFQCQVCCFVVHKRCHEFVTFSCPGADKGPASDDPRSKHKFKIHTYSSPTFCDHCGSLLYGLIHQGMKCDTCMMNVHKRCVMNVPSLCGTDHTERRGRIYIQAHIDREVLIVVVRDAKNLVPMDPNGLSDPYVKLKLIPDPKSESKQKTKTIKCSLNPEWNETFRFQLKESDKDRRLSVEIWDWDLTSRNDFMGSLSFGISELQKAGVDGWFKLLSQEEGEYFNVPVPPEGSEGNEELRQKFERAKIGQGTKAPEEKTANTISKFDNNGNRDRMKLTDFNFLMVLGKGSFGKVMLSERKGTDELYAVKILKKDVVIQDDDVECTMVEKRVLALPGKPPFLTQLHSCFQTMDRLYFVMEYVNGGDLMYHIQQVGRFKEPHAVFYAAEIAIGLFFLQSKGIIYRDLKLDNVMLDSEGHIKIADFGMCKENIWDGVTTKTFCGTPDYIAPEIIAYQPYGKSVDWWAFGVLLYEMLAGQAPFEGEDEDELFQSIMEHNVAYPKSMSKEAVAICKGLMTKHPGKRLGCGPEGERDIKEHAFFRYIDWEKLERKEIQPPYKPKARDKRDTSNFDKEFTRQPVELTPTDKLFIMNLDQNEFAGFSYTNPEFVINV
# T1 construct: we inserted the complete protein coding cDNA of rat PKC β-1; made in house; host or cells: Saccharomyces cerevisiae strain 334, YEp51 with GAL10 promoter; crude detergent cell extract
# Experiment: [3H]PDBu binding to yeast spheroplasts expressing PKC beta-1 forms
structure (smiles),measurement,value
"CCCC(=O)O[C@@H]1[C@@H](C)[C@@]2(O)[C@@H](C=C(CO)C[C@]3(O)C(=O)C(C)=C[C@@H]23)[C@@H]2C(C)(C)[C@]12OC(=O)CCC [PDBu, phorbol-12, 13-dibutyrate]",Kd,80 nM

# Reference: patent publication US5776685A, “Protein kinase C assay” (Joslin Diabetes Center, priority 1996, dated 1998)
